The values that follow come from patent US9796710B2, “Dihydropyrrolopyridine inhibitors of ROR-gamma” (Vitae Pharmaceuticals, Inc., priority 2014, dated 2017).

By UniProt entry, the sequences of proteins in these tests, tags left out. Chains listed by the source or under a name are the forms on record and can include a tag or linker. Residues count along the entry.
UniProt P51449, 269-508 limits assumed: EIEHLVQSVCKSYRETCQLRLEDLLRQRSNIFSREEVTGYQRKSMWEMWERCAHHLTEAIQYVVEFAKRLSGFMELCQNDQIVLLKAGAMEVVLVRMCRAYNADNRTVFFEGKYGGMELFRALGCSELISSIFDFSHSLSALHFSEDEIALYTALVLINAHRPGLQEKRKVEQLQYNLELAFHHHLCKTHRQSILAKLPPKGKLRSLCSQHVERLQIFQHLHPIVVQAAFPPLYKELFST
UniProt P51449, 25-518 with tags or gaps limits assumed: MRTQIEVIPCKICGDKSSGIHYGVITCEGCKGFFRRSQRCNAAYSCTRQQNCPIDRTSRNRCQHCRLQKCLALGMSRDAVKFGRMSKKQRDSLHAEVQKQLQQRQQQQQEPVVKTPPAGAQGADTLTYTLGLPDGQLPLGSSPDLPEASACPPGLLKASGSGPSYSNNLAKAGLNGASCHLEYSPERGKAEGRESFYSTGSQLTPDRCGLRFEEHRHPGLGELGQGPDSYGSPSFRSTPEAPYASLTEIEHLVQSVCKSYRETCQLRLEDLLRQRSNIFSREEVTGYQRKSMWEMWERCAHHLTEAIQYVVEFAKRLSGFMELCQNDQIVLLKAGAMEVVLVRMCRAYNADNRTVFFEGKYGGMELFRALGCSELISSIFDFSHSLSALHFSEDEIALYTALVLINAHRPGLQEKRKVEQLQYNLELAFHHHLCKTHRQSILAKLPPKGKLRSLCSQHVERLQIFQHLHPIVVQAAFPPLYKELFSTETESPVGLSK
UniProt Q12809, whole entry: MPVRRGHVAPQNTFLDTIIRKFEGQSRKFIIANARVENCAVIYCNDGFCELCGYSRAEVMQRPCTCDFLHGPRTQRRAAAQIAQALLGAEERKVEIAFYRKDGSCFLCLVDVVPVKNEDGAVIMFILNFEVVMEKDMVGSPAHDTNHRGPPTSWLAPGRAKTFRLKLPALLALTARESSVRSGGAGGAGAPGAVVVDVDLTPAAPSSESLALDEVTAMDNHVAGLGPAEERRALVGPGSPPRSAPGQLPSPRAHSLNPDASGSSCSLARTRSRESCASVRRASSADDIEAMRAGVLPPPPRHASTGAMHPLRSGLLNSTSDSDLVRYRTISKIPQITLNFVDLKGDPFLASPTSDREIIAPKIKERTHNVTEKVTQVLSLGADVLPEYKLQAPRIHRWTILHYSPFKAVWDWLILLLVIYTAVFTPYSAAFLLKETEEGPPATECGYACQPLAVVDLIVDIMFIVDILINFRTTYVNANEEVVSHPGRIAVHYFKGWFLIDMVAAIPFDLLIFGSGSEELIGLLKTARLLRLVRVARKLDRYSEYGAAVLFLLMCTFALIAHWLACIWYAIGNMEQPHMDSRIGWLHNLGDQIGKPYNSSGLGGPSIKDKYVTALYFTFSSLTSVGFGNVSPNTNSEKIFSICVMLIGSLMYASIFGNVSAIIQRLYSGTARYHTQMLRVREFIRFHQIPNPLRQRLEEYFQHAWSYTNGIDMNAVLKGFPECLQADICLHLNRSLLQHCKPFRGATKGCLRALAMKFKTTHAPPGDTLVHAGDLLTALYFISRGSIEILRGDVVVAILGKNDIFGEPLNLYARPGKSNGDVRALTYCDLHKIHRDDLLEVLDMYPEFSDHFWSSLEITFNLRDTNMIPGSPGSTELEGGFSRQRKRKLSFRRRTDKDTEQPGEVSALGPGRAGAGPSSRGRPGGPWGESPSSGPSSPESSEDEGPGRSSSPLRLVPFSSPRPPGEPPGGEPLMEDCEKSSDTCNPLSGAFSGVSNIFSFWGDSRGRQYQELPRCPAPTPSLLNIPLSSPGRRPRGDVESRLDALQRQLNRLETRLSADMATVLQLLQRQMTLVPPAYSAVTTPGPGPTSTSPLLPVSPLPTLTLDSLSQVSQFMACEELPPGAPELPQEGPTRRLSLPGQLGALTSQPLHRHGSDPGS

Like-named read-outs stand apart in the source and are kept apart here.

For orientation: Ki means a measure of affinity in units of concentration, obtained from inhibition or displacement. By IC50 is commonly meant the concentration needed to halve the response being measured. What is called inhibition is the drop in the measured response relative to a control, in per cent.

Data set [1] deals with recombinant RORγ Ligand Binding Domain (LBD) protein (Homo sapiens (Human), UniProt P51449). Nature of the data set: Radio-Ligand RORγ Binding Assay (Assay 1). The note with it: read-out: RORγ Binding Ki Range* (nM) (Assay 1).
Data set [2] deals with full-length RORγt in Jurkat cells (Homo sapiens (Human), UniProt P51449). The note with it: read-out: RORγt5X IC50 Range* (nM) (Assay 2).
The next data set concerns IL-17A production. Nature of the data set: Human Whole Blood Assay (Assay 3). The note with it: read-out: 50% Human Whole Blood Assay IC50, nM* (Assay 3); IL-17A secretion, CytoStim, 48 h, 50% blood/media.
Data set [3] has as its target hERG (human ether-a-go-go-related gene) potassium ion channel (Homo sapiens (Human), UniProt Q12809).

In the case of `CC(C)[C@H]1c2ncc(C(=O)N[C@@H](CO)c3ccc(S(C)(=O)=O)cc3)cc2CN1C[C@H]1CC[C@@H](C(F)(F)F)CC1`, the Ki in data set [1] was below 100 nM. For the same molecule, the IC50 in data set [2] is above 1000 nM.
`CC(C)[C@H]1c2ncc(C(=O)N[C@@H](CO)c3ccc(S(C)(=O)=O)cc3)cc2CN1C[C@H]1CC[C@H](C(F)(F)F)CC1`: the Ki in data set [1] (cell-free competition with 25-hydroxy [26,27-3H]-cholesterol) was below 100 nM. Moreover, the IC50 was 100 to 200 nM with IL-17A production and below 100 nM in data set [2] (Jurkat cells, Nanoluc luciferase reporter). This molecule also gave an inhibition in data set [3] of 3.2%.
Take `CCS(=O)(=O)c1ccc([C@H](CO)NC(=O)c2cnc3c(c2)CN(C[C@H]2CC[C@H](C(F)(F)F)OC2)[C@H]3C(C)C)cc1`: the Ki in data set [1] is below 100 nM. Besides, the IC50 (in the data set on IL-17A production; in data set [2]) was below 100 nM in each case.
